Earlier results, collected in patent US20090317451A1, “PRESSURE-SENSITIVE ADHESIVE FOR SKIN SURFACE AND/OR TRANSDERMAL SUBSTANCE DELIVERY” (priority 2008, published 2009).

Settings: solvent(s) in which soluble; Merck 12th edition or other reference
In the case of Bleomycin glycopeptice, the “Reported Solubility” value is given as “Water, methanol”.
For Estrogen, the “Reported Solubility” value is given as “Alcohol slight”.
For Alendronic acid salts, the “Reported Solubility” value is listed as “Alcohol”.
